Measurements as given in PubChem BioAssay (NCATS).
The list shows a part of the results, in another mix than the full data. Results filed as inconclusive are left out. Active and inactive are the calls of the source. Unless noted, the call rests on the fitted dose curve; in most records, active means well fitted curve in the direction sought with a large enough effect; inconclusive means small, poorly fitted or top-dose-only effect, or another doubt; inactive means no such curve, though single readings can be large; an effect the other way counts as inactive or inconclusive.

Chains of the proteins cited; added tags and fusions are not shown. Lines headed by an entry give the natural chain unless they say otherwise; changes in a name come on top.
UniProt P16066: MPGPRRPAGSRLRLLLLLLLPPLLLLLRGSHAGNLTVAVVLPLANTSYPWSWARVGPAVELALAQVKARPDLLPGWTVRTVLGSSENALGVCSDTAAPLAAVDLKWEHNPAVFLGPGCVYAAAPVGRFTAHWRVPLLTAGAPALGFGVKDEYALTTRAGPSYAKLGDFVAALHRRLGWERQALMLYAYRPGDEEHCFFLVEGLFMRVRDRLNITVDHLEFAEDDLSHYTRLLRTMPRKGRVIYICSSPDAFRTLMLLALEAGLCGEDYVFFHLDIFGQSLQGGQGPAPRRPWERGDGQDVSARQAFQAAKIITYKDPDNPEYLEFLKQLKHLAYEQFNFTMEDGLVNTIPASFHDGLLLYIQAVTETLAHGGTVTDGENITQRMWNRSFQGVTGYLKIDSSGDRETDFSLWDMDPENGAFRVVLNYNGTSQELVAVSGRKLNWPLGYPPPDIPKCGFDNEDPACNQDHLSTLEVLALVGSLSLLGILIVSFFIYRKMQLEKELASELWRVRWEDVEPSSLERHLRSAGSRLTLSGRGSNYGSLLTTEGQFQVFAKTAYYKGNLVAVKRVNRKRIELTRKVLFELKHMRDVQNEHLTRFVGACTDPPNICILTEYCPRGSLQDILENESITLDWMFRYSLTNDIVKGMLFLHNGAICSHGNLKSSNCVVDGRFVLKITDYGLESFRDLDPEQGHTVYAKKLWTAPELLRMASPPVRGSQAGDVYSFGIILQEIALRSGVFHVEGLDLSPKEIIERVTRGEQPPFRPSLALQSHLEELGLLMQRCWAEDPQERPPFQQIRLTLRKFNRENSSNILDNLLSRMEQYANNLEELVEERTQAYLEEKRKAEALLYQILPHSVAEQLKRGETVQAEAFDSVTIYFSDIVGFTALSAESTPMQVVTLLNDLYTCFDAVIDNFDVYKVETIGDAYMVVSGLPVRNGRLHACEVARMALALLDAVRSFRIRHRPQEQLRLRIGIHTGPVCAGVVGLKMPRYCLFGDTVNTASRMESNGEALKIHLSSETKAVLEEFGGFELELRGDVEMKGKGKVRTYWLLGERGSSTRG
UniProt P20594: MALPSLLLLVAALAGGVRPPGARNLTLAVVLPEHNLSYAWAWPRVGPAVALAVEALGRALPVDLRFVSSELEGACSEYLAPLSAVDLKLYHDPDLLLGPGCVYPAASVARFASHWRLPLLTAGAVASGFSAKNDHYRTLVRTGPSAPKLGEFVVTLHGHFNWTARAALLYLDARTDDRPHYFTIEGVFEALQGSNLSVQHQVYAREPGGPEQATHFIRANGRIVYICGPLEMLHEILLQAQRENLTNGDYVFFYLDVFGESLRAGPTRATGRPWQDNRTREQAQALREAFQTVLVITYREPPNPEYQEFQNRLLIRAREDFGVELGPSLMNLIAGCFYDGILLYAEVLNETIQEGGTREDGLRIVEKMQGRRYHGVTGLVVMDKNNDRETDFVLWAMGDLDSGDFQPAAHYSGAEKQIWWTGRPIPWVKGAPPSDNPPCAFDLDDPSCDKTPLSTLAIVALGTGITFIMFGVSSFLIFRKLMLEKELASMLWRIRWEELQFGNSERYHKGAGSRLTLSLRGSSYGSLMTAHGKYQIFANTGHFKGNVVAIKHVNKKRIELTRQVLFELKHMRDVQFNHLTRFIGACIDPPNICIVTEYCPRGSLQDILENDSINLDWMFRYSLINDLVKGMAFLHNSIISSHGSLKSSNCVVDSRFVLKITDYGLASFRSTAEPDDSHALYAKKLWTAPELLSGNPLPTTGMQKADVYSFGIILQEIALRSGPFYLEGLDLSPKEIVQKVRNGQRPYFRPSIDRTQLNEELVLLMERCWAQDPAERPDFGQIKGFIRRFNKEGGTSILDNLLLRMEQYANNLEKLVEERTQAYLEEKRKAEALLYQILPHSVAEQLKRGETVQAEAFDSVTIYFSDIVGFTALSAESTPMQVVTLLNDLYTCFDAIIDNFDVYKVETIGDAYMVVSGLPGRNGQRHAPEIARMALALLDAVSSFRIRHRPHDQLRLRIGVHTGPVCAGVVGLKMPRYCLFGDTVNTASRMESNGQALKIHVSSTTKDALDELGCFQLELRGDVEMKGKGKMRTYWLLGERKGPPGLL
UniProt P78324, whole entry, looked up: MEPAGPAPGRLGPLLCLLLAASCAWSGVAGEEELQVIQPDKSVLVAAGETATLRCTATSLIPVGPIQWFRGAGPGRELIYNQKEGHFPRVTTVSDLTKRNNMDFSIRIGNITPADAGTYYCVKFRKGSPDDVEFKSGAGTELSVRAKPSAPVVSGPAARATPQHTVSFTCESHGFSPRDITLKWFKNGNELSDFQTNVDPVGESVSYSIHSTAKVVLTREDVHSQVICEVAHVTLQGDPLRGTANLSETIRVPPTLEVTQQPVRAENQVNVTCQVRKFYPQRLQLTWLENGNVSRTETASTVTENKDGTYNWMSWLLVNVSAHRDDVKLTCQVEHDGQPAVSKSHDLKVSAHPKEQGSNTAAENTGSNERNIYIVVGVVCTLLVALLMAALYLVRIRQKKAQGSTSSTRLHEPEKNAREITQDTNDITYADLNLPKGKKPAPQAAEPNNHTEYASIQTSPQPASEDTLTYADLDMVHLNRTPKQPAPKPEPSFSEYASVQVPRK
UniProt Q08722, whole entry, looked up: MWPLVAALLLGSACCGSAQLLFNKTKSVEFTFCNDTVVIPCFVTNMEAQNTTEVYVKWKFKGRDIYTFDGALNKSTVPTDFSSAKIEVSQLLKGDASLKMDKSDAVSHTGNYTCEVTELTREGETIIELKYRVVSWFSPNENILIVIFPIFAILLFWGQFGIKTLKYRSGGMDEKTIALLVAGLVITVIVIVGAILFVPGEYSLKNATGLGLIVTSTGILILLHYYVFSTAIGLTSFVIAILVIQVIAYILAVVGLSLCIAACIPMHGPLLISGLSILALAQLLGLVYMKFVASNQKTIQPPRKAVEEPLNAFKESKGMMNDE
UniProt Q03431: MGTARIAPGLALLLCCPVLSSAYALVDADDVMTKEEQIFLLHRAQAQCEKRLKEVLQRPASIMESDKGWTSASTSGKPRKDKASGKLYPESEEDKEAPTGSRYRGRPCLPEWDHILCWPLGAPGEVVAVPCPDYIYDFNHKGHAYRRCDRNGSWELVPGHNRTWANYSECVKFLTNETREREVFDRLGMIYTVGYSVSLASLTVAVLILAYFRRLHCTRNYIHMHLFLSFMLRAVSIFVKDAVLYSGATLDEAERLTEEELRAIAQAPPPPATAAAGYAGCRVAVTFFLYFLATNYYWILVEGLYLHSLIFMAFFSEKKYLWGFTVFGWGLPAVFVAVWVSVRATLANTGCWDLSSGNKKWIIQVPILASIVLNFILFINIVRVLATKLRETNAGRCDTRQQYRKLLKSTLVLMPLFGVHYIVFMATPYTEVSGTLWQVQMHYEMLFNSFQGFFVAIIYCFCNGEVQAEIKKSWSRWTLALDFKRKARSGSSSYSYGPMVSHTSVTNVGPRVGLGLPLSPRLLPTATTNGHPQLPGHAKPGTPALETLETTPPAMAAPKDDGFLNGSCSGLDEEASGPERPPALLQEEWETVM
UniProt Q9BV86: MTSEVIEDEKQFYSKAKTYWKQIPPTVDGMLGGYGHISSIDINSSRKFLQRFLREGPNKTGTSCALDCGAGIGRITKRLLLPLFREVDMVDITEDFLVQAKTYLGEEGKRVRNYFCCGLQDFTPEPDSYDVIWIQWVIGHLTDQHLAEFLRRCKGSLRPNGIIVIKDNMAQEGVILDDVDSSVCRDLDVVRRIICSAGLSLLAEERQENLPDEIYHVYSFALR
UniProt Q9UGL1: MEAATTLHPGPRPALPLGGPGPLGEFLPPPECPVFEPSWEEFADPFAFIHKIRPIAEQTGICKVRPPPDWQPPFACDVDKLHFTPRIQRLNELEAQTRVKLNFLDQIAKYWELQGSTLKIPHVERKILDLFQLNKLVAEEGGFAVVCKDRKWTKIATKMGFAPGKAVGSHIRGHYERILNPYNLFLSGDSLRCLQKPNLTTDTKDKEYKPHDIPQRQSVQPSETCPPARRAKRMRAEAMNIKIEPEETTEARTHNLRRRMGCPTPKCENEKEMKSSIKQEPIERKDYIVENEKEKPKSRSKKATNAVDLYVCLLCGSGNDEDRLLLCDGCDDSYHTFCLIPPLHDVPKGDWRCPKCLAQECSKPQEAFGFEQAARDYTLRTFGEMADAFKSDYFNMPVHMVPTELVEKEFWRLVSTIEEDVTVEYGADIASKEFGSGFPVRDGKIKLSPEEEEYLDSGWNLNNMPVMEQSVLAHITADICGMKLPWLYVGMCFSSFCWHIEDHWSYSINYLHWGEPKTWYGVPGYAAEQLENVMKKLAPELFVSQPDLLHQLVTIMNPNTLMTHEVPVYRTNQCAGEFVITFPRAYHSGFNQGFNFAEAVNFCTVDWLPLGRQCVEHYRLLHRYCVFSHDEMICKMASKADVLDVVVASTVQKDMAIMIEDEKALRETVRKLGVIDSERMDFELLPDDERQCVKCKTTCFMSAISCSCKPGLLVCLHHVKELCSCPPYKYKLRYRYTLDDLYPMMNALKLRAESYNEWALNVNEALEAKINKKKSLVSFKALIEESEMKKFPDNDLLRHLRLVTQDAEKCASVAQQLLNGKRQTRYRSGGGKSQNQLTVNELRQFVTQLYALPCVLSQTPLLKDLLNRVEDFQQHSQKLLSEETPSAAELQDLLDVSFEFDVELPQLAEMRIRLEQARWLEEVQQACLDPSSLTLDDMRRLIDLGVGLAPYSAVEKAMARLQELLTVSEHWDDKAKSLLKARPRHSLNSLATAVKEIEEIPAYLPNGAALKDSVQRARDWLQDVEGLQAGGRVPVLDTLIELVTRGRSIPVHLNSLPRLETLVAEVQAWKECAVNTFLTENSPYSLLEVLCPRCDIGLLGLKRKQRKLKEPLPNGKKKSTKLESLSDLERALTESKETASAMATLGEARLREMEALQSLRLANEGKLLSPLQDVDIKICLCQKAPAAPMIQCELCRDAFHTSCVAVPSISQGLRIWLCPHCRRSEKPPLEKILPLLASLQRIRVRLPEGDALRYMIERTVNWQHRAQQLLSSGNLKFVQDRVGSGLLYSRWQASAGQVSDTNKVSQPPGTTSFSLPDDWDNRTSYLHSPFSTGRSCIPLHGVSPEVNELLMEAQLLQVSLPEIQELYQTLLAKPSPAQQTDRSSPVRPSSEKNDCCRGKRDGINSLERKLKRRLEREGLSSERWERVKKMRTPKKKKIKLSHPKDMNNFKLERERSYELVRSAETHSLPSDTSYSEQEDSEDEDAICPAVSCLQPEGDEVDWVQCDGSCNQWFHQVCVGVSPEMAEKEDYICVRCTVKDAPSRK
UniProt Q9GZX7: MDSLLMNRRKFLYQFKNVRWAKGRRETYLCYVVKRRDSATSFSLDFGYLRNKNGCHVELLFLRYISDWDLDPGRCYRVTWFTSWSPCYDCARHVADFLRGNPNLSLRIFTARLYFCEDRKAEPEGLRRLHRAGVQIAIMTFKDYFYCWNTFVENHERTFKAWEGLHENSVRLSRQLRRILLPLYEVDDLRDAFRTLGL
UniProt Q99828: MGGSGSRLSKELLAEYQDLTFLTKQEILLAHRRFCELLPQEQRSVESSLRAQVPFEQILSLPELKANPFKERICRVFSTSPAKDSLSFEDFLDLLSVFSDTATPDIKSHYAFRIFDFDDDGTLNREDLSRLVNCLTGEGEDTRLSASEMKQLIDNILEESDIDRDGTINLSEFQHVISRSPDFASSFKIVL
UniProt C7C422: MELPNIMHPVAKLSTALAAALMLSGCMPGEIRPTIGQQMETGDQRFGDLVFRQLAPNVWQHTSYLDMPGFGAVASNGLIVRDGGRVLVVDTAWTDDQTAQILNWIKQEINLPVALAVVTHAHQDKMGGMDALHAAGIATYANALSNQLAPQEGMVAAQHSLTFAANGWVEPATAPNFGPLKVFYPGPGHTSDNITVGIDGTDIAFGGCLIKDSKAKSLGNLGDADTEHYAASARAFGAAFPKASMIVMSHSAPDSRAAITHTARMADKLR
UniProt P36969, whole entry, looked up: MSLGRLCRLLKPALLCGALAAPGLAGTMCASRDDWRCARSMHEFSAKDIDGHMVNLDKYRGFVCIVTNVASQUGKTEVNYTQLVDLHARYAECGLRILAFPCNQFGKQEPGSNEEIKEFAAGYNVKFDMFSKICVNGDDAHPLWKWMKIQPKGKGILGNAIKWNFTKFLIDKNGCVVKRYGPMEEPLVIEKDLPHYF

Assays:
[1] = target: Atrial natriuretic peptide receptor 1 (Homo sapiens) (UniProt P16066); assay: Natriuretic polypeptide receptor (hNpr1) antagonism - Pilot screen (AID 1347049; calls by dose curve;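 further: agonist-evoked cGMP luminescence read 20 min after hNppA addition; on the % scale 0 is the no-effect control and ±100 the full control effect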); conditions: hNpr1 cells, antagonist mode cGMP read-out; at 57.5 µM (top of the series)
Summary of the method: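 Readout is cGMP-driven firefly luciferase luminescence in HEK293 cells carrying hNpr1 and a PDE5-domain GloSensor, read before and 20 min after 0.1 nM hNppA stimulation. Cells had 2% substrate reagent for 2 h and test compound for 30 min.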

[2] = target: Atrial natriuretic peptide receptor 2 (Homo sapiens) (UniProt P20594); assay: Natriuretic polypeptide receptor (hNpr2) antagonism - Pilot subtype selectivity assay (AID 1347050; calls by dose curve; further: on the % scale 0 is the no-effect control and ±100 the full control effect); conditions: NPR2-expressing cells, cGMP antagonist-mode read-out; at 38.3 µM (top of the series)
Summary of the method: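 Pilot selectivity screen against hNpr2: HEK293 cGMP-sensor cells are treated with LOPAC1280 compounds, then with hNppC peptide at 1 nM final. The cGMP-driven luminescence change over 20 min at room temperature is the read-out.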

[3] = target: T1, Tyrosine-protein phosphatase non-receptor type substrate 1 (Homo sapiens) + Leukocyte surface antigen CD47 (Homo sapiens) (UniProt P78324+Q08722); assay: CD47-SIRPalpha protein protein interaction - LANCE assay qHTS validation (AID 1347057; active means well fitted curve in the direction sought with a large enough effect in the signal ratio, with a control signal flat, not every such curve was filed as active; the % refers to the signal ratio; further: 0% is about no effect); conditions: Recombinant CD47-His / biotin-SIRPalpha, TR-FRET ratio; at 38.3 µM (top of the series)
Summary of the method: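 First, His-tagged CD47 and Eu-labelled anti-His antibody met the compound for 30 min; next, site-specifically biotinylated SIRPalpha was added for 30 min; finally streptavidin-APC was added before reading the TR-FRET ratio.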

[4] = target: T1, Tyrosine-protein phosphatase non-receptor type substrate 1 (Homo sapiens) + Leukocyte surface antigen CD47 (Homo sapiens); assay: CD47-SIRPalpha protein protein interaction - HTRF assay qHTS validation (AID 1347058; active means well fitted curve in the direction sought with a large enough effect in the signal ratio, not every such curve was filed as active; the % refers to the signal ratio;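 further: recombinant soluble extracellular CD47 with His tag and biotinylated SIRPalpha domains; 0% is about no effect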); conditions: TR-FRET HTRF CD47-His / biotin-SIRPalpha binding, ratio 665/615; at 38.3 µM (top of the series)
Summary of the method: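 TR-FRET read (Ch1/Ch2 ratio) of soluble extracellular CD47 and Avi-biotinylated SIRPalpha domains in PBS pH 7.4 with 0.05% IGEPAL; 7-point compound titration. Sequential 30 min room-temperature steps; non-biotinylated SIRPalpha as control inhibitor.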

[5] = target: T1, Tyrosine-protein phosphatase non-receptor type substrate 1 (Homo sapiens) + Leukocyte surface antigen CD47 (Homo sapiens); assay: CD47-SIRPalpha protein protein interaction - Alpha assay qHTS validation (AID 1347059); conditions: AlphaScreen CD47-His/biotin-SIRPalpha binding, LOPAC; at 38.3 µM (top of the series);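 further: bead proximity luminescence from CD47 binding SIRPalpha after compound preincubation with SIRPalpha; on the % scale 0 is the no-effect control and ±100 the full control effect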
Summary of the method: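 Binding is measured by AlphaScreen proximity: Ni-NTA acceptor beads capture His-CD47, streptavidin donor beads capture biotin-SIRPalpha. Each of three additions (SIRPalpha with compound, CD47, beads) incubates 30 min at room temperature protected from light.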

[6] = target: Parathyroid hormone/parathyroid hormone-related peptide receptor (Homo sapiens) (UniProt Q03431); assay: qHTS for PTHR1 Agonists: Optimization Screen against the NCGC LOPAC library (AID 1347079); conditions: HEK293 GP2 PTHR1 GloSensor cAMP luminescence, 1 h; at 57.1 µM (top of the series);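 further: GloSensor cAMP luminescence in HEK-293 GP2 cells expressing human PTHR1 with IBMX; 0% is about no effect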
Summary of the method: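 Compounds were tested across a qHTS titration. PTHR1-expressing GP2 cells report cAMP rises via GloSensor luminescence after 1 hr compound exposure at 37C with IBMX present.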

[7] = target: N-terminal Xaa-Pro-Lys N-methyltransferase 1 (Homo sapiens) (UniProt Q9BV86); assay: qHTS Assay for Inhibitors of N-terminal methyltransferase 1 (NTMT1): LOPAC validation of the NTMT1 SAHH-coupled ThioGlo3 Assay (AID 1347143); conditions: recombinant NTMT1, SAHH-coupled ThioGlo3 fluorescence; at 114 µM (top of the series);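 further: SAH from peptide methylation measured as thiol fluorescence via SAHH coupling and ThioGlo3; on the % scale 0 is the no-effect control and ±100 the full control effect; nearly all actives have a fitted effect of over 70% in size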
Summary of the method: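 Inhibition of NTMT1 methylation of peptide SPKRIA is followed by converting SAH with SAHH and labelling the released thiol with ThioGlo3. Plates are read at 340/450nm before and 30 min after reagent addition, both at room temperature.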

[8] = target: Lysine-specific demethylase 5B (Homo sapiens) (UniProt Q9UGL1); assay: Optimization screen for KDM5B Histone Demethylases FDH coupled qHTS against the LOPAC library (AID 1347166); conditions: KDM5B demethylation, FDH-coupled NADH fluorescence; at 57.5 µM (top of the series); further: 0% is about no effect
Summary of the method: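 KDM5BDeltaAP (200nM final) preincubated 10 min with compound, then 12.5uM H3K4Me3, 25uM a-ketoglutarate, ascorbate, Fe(II), NAD+ and FDH added; 50mM HEPES pH 7.5, 0.01% Tween-20. NADH fluorescence (340/450 nm) change over 30 min, room temperature.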

[9] = qHTS to identify inhibitors of the type 1 interferon - major histocompatibility complex class I in skeletal muscle: primary screen against the NCATS LOPAC collection (AID 1347405); conditions: iHSKM muscle cells, IFN-b-induced MHC-I HiBiT luminescence, 24 h; at 45.9 µM (top of the series);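 further: lytic HiBiT luminescence reporting HLA-B protein level; on the % scale 0 is the no-effect control and ±100 the full control effect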
Summary of the method: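 Cells: C25cl48 human myoblasts, HiBiT-tagged HLA-B*08:01, stimulated with IFN-beta 4.0 ng/ml. Compounds are titrated 1:4.3 over 7 points from 46 uM final and incubated 24 hrs; endogenous MHC class I is quantified by HiBiT lytic luminescence.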

[10] = qHTS for inhibitors of adenylyl cyclases using a fission yeast platform: a pilot screen against the NCATS LOPAC library (AID 1347410);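 further: plate controls were DMSO vehicle for no effect and DPI positive control for full effect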; conditions: S. pombe CHP2027, fbp1-GFP fluorescence, 18 h, yeast expressing mammalian AC9 and human GNAS; at 57.5 µM (top of the series)
Summary of the method: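 GFP from fbp1-GFP reporter, read by Acumen laser cytometry, indicates AC inhibition in fission yeast expressing AC9, GNAS and PDE4D2. Cells grown 18 h in the dark at 30C with compounds, final up to 57 uM.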

[11] = Validation qHTS assay for inhibitors of Activation Induced Cytidine Deaminase (AID): UDG Counterscreen signal (AID 1347427); conditions: biochemical UDG counterscreen, fluorescence signal; at 115 µM (top of the series); further: 0% is about no effect
Summary of the method: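 Counterscreen read of UDG activity (2 U/mL, 4/3x) in the FRET deamination format with AID (1 uM, 4/3x), DJC20/DJC23 substrates (250 nM, 4x), 4 h at room temperature. NaOH stop, fluorescence at 560 ex/665 em.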

[12] = target: Single-stranded DNA cytosine deaminase (Homo sapiens) (UniProt Q9GZX7); assay: Validation qHTS assay for inhibitors of Activation Induced Cytidine Deaminase (AID): AID signal (AID 1347429); conditions: Recombinant AID, FRET ssDNA deamination with UDG, fluorescence; at 115 µM (top of the series); further: on the % scale 0 is the no-effect control and ±100 the full control effect
Summary of the method: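 In this coupled qHTS, AID deaminates a FRET-labelled ssDNA substrate in the presence of UDG over 4 hr at room temperature. Compounds span up to 114 uM final.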

[13] = target: Calcium and integrin-binding protein 1 (Homo sapiens) (UniProt Q99828); assay: Validation qHTS for Identification of Calcium Integrin Binding protein 1 (CIB1) Competitor (AID 1508618); conditions: CIB1-GST / FITC-alphaIIb peptide fluorescence polarization; at 114 µM (top of the series); further: on the % scale 0 is the no-effect control and ±100 the full control effect
Summary of the method: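 In this qHTS validation, the LOPAC set (up to 114 uM) was tested for blocking CIB1 binding to a fluorescein-tagged alphaIIb peptide, with FP detection at 480/540 nm.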

[14] = target: Metallo-beta-lactamase type 2 (Klebsiella pneumoniae) (UniProt C7C422); assay: qHTS to identify inhibitors of the New Delhi Metallo-beta-lactamase (NDM): assay validation screen against the NCATS LOPAC Collection (AID 1794843); conditions: NDM-1 enzyme, nitrocefin hydrolysis, absorbance 485 nm; at 38.4 µM (top of the series)
Summary of the method: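 Nitrocefin hydrolysis (50 uM substrate stock) by NDM-1, 2 nM final, was followed by 485 nm absorbance after compound preincubation; buffer was 50 mM HEPES pH 7.0, 1 uM ZnSO4, 0.01% Tween20.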

[15] = target: Phospholipid hydroperoxide glutathione peroxidase GPX4 (Homo sapiens) (UniProt P36969); assay: Primary qHTS Assay for Inhibitors of Recombinant Selenoprotein Glutathione Peroxidase 4 (GPX4) (AID 1845192); conditions: recombinant GPX4, GR-coupled NADPH fluorescence, 15 min; activity change, negative = inhibition: at 50 µM (top of the series); further: on the % scale 0 is the no-effect control and ±100 the full control effect; nearly all actives have a fitted effect of over 65% in size
Summary of the method: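 NADPH consumption, followed by fluorescence at 340/450 nm between 0 and 15 min, reports GPX4 activity via coupled glutathione reductase (100 nM). Enzyme 200 nM was pre-exposed to compound 30 min; 0.5 mM cumene hydroperoxide and 1 mM GSH served as substrates.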

CN(C(=O)Cc1ccc(Cl)c(Cl)c1)[C@@H]1CCCC[C@@H]1N1CCCC1
inactive: activity change, negative = inhibition [1] 5.2% | activity change, negative = inhibition [2] -20.5% | activity change, negative = inhibition [3] 0.847% | activity change, negative = inhibition [4] -0.565% | activity change, negative = inhibition [5] 3.4% | activation [6] -26.7% | activity change, negative = inhibition [7] -30.7% | activity, negative = inhibition [8] -15.4% | activity change, negative = inhibition [9] -3.5% | activity, positive = inhibition (GFP gain) [10] -0.438% | activity, negative = inhibition [11] 6.27% | activity change, negative = inhibition [12] 14.8% | activity change, negative = inhibition [13] 1.63% | activity change, negative = inhibition [14] 9.35% | activity change, negative = inhibition [15] -18.4%
